# Results reported in ChEMBL document CHEMBL3862033 (J Med Chem, 2016).
# The chains behind the UniProt entries cited, without tags or fusion partners. Where a name states a change or a piece, a line headed by the entry shows the natural chain unless it says otherwise.
# UniProt P30536, whole entry: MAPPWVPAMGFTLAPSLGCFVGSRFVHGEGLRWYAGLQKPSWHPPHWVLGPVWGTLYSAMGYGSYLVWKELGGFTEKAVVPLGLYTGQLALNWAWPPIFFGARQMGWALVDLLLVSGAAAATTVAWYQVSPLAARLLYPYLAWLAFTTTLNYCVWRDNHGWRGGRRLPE
# UniProt P28566: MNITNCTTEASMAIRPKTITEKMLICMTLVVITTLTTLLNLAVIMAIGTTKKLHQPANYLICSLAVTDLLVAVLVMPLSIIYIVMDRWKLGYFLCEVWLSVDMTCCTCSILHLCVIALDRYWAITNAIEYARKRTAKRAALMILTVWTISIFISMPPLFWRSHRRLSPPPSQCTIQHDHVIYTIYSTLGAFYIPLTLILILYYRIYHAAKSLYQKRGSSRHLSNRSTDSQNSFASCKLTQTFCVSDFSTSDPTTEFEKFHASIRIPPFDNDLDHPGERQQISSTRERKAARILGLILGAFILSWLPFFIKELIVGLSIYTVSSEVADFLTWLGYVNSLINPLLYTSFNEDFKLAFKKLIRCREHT
# UniProt P41595, whole entry: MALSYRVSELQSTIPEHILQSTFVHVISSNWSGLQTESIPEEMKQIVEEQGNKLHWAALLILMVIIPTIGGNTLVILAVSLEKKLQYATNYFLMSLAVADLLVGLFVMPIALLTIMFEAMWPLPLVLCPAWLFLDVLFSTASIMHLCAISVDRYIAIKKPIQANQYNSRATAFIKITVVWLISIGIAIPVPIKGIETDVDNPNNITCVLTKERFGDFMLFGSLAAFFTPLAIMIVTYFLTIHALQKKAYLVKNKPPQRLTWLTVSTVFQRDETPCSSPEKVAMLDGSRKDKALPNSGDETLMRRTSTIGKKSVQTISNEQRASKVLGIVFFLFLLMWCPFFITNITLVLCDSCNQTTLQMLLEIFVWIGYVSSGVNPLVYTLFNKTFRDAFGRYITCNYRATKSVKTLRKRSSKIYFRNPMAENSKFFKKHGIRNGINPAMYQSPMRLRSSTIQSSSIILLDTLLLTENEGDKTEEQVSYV
# UniProt Q13639: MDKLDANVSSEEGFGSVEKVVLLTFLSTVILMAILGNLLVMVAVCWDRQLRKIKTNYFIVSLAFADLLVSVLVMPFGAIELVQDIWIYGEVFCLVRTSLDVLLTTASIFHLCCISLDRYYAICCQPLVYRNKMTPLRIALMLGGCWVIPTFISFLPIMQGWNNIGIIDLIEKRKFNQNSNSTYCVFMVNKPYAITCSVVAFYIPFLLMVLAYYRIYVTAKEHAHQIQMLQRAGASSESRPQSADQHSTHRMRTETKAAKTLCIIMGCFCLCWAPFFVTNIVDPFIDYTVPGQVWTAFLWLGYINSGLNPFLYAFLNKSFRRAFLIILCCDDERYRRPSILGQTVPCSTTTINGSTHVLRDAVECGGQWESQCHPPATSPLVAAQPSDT
# UniProt P46098, whole entry: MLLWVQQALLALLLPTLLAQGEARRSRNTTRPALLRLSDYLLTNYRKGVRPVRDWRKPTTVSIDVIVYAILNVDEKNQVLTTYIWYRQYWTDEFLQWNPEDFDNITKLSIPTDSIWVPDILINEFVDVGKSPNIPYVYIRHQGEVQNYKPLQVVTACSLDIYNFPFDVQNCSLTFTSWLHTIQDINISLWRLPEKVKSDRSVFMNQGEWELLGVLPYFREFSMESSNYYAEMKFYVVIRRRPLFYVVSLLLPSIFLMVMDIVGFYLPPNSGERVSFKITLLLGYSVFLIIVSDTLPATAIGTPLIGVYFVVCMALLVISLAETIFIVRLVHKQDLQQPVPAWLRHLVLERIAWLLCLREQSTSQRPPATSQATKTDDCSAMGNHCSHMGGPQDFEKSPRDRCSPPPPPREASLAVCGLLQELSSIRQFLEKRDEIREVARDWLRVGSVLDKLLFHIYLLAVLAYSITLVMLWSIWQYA
# UniProt P34969, whole entry: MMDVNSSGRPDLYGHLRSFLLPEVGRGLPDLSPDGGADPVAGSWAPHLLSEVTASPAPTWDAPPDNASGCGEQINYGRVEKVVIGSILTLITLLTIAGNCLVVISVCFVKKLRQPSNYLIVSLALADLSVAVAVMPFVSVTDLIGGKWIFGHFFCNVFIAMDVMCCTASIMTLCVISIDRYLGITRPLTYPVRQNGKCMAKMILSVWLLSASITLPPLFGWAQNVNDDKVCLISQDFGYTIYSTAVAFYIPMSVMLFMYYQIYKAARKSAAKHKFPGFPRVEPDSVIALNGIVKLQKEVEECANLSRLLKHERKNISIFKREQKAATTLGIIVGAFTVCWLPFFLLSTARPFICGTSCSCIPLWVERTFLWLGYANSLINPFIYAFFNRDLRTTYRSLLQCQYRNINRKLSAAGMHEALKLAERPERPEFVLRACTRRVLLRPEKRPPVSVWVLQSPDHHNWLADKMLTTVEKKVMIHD
# UniProt P28335: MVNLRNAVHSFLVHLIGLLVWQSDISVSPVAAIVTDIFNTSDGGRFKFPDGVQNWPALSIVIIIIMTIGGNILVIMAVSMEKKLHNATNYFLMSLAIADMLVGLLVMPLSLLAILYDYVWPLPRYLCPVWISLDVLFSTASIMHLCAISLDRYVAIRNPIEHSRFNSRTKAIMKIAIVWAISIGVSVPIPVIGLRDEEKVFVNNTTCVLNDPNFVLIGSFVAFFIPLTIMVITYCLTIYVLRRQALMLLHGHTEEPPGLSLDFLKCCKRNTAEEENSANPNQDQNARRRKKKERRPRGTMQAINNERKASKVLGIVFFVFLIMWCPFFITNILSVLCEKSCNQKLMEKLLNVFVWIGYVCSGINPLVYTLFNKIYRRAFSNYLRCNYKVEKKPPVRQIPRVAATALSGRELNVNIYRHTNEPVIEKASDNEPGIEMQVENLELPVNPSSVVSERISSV
# UniProt P28222, whole entry: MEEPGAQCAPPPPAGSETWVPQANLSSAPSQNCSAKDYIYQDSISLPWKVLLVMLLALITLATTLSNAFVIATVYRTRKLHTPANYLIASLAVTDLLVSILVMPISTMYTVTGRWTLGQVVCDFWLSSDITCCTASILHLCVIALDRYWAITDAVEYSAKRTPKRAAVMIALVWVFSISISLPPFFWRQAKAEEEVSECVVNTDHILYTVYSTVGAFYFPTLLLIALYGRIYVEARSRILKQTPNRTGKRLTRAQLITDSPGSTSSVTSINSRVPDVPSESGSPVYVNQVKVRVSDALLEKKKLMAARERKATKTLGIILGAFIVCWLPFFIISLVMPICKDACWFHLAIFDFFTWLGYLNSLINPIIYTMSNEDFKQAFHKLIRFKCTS
# UniProt P50406, whole entry: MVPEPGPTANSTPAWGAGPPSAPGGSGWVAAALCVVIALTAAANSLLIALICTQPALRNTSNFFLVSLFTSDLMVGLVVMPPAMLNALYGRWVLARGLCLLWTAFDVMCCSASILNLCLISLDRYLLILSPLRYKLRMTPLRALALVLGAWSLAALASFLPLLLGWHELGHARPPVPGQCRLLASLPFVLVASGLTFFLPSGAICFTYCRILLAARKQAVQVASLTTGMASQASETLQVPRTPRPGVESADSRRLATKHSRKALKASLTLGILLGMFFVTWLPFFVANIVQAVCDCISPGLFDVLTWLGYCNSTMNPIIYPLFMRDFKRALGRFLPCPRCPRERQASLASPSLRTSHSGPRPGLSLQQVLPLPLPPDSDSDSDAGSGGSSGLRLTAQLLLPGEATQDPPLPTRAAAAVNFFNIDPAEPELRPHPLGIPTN
# UniProt P47898, whole entry: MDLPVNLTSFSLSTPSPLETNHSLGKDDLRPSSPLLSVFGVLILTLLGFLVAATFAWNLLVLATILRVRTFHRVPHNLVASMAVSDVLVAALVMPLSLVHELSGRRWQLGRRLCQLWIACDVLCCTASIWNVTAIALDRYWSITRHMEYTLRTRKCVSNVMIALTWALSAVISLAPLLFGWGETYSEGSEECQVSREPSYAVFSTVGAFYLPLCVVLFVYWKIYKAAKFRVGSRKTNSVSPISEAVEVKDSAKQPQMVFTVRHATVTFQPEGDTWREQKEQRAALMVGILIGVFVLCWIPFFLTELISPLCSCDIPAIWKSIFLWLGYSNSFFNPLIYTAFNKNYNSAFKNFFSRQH
# UniProt P08908, whole entry: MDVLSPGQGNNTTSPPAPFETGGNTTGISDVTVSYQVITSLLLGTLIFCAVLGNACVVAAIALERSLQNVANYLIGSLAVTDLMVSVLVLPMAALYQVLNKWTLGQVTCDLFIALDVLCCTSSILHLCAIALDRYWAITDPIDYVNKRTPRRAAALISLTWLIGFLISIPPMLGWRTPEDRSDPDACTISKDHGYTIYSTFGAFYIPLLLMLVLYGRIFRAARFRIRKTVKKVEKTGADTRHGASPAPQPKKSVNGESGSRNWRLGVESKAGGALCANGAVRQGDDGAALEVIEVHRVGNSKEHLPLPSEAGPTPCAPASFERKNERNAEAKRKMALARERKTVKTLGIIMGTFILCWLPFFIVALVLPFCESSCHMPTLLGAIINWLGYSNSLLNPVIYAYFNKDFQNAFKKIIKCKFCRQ
# UniProt P28221: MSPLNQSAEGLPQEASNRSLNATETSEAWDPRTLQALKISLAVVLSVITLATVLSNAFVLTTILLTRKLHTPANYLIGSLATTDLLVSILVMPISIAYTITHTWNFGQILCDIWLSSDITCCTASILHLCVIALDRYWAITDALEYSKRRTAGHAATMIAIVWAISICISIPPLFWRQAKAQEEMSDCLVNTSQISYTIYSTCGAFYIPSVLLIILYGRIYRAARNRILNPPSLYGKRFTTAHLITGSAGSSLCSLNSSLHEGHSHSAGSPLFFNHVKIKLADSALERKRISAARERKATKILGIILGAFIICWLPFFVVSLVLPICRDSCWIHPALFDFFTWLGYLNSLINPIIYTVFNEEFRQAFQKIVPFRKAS
# UniProt P0DMS8, whole entry: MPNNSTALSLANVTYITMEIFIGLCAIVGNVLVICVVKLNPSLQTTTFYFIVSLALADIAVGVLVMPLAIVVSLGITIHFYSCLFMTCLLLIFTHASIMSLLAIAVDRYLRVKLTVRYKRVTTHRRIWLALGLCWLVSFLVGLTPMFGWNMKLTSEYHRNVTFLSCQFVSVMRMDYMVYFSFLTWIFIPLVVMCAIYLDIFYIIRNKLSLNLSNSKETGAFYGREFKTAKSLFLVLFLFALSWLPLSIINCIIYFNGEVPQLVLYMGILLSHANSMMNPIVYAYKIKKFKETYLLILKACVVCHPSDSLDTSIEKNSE
# Key:
# Translocator protein = Translocator protein (Homo sapiens, UniProt P30536); test: Inhibition of TSPO (unknown origin)
# [1] = molecular target: 5-hydroxytryptamine receptor 1E (Homo sapiens) (UniProt P28566); test: Displacement of [3H]5-HT from human 5-HT1E receptor expressed in HEK cell membranes at 10 uM incubated for 90 mins under dark condition by microbeta scintillation counting method relative to control; details: HEK293
# Adenosine receptor A2a = Adenosine receptor A2a (Homo sapiens, UniProt P29274); test: Displacement of [3 H]2-[p-(2-carboxyethyl)phenyl-ethylamino]-5'-N-ethylcarboxamidoadenosine from recombinant human adenosine receptor A2A expressed in HEK293 cell membranes at 10 uM after 60 mins by liquid scintillation counting method relative to control
# [2] = molecular target: 5-hydroxytryptamine receptor 2B (Homo sapiens, UniProt P41595); details: HEK293, at 10 µM
# [3] = molecular target: 5-hydroxytryptamine receptor 4 (Homo sapiens) (UniProt Q13639); test: Displacement of [3H]GR113808 from human 5-HT4 receptor at 10 uM incubated for 90 mins under dark condition by microbeta scintillation counting method relative to control
# [4] = molecular target: 5-hydroxytryptamine receptor 3A (Homo sapiens, UniProt P46098); test: Displacement of [3H]GR65630 from human 5-HT3 receptor expressed in HEK-T cell membranes at 10 uM incubated for 90 mins under dark condition by microbeta scintillation counting method relative to control
# [5] = molecular target: 5-hydroxytryptamine receptor 7 (Homo sapiens) (UniProt P34969); test: Displacement of [3H]LSD from human 5-HT7A receptor expressed in HEK cell membranes at 10 uM incubated for 90 mins under dark condition by microbeta scintillation counting method relative to control; details: HEK293
# [6] = molecular target: 5-hydroxytryptamine receptor 2C (Homo sapiens, UniProt P28335); test: Displacement of [3H]mesulergine from human 5-HT2CR expressed in Flp-In HEK cell membranes at 10 uM incubated for 90 mins under dark condition by microbeta scintillation counting method relative to control; details: HEK293
# [7] = molecular target: 5-hydroxytryptamine receptor 1B (Homo sapiens) (UniProt P28222); test: Displacement of [3H]5-CT from human 5-HT1BR expressed in HEK cell membranes at 10 uM incubated for 90 mins under dark condition by microbeta scintillation counting method relative to control; details: HEK293
# [8] = molecular target: 5-hydroxytryptamine receptor 6 (Homo sapiens) (UniProt P50406); test: Displacement of [3H]LSD from human 5-HT6 receptor expressed in HEK cell membranes at 10 uM incubated for 90 mins under dark condition by microbeta scintillation counting method relative to control; details: HEK293
# [9] = molecular target: 5-hydroxytryptamine receptor 5A (Homo sapiens) (UniProt P47898); test: Displacement of [3H]LSD from human 5-HT5A receptor expressed in Flp-In-CHO cell membranes incubated for 90 mins under dark condition by microbeta scintillation counting method relative to control; set-up: concentration or dose not given beside the values
# [10] = molecular target: 5-hydroxytryptamine receptor 1A (Homo sapiens) (UniProt P08908); test: Displacement of [3H]WAY100635 from human 5-HT1AR expressed in CHO cell membranes at 10 uM incubated for 90 mins under dark condition by microbeta scintillation counting method relative to control
# [11] = molecular target: 5-hydroxytryptamine receptor 1D (Homo sapiens) (UniProt P28221); test: Displacement of [3H]5-CT from human 5-HT1D receptor expressed in HEK-T cell membranes at 10 uM incubated for 90 mins under dark condition by microbeta scintillation counting method relative to control
# Adenosine receptor A3 = Adenosine receptor A3 (Homo sapiens, UniProt P0DMS8); test: Displacement of [125l]N 6-(4-amino-3-iodobenzyl)adenosine-5'-N-methyluronamide from recombinant human A3AR expressed in CHO cell membranes after 60 mins by gamma counting method
structure (smiles),measurement,setting,value
CCOC(=O)[C@@]12C[C@@H]1[C@@H](n1cnc3c(NC(C4CC4)C4CC4)nc(Cl)nc31)[C@H](O)[C@@H]2O,Ki,Translocator protein,2.1 µM
O[C@@H]1[C@H](O)[C@@H]2C[C@@H]2[C@H]1n1cnc2c(NC(C3CC3)C3CC3)nc(Cl)nc21,inhibition,[1],< 50%
same,inhibition,Adenosine receptor A2a,> 50%
same,inhibition,[2],> 50%
same,inhibition,[3],< 50%
same,inhibition,[4],< 50%
same,inhibition,[5],< 50%
same,inhibition,[6],> 50%
same,inhibition,[7],< 50%
same,inhibition,[8],< 50%
same,inhibition,[9],< 50%
same,inhibition,[10],< 50%
same,inhibition,[11],< 50%
O[C@@H]1[C@H](O)[C@@H]2C[C@@H]2[C@H]1n1cnc2c(NCc3cccc(Cl)c3)nc(Cl)nc21,Ki,Adenosine receptor A3,4.9 µM
